Biological target: Cholinesterase (Equus caballus, UniProt P81908)
Test: Inhibition of equine serum BChE using ATC iodide substrate by DTNB based assay

By UniProt entry, the sequences of proteins in these tests, tags left out.
UniProt P81908, whole entry: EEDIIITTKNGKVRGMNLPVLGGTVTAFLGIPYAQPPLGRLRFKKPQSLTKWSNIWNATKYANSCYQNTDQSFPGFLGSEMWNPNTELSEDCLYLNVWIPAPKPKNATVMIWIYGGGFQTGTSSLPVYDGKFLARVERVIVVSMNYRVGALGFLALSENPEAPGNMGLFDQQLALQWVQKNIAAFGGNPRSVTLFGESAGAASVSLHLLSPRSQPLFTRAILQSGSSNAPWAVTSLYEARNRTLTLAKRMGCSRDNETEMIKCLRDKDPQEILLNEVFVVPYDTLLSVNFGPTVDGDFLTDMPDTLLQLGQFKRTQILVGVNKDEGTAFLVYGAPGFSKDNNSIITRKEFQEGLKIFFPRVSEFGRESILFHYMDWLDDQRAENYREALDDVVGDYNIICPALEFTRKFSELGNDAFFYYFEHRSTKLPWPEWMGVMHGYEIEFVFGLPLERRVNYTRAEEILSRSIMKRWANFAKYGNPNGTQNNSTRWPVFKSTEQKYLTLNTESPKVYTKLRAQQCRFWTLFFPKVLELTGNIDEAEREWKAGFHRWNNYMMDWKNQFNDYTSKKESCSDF

In the case of `CNC(=O)Oc1ccc2c(c1)[C@]1(C)CCN(C)[C@@H]1N2C` [PHYSOSTIGMINE], the IC50 is reported as 40 nM.

— ChEMBL document CHEMBL3351595, “Cyclic acyl guanidines bearing carbamate moieties allow potent and dirigible cholinesterase inhibition of either acetyl- or butyrylcholinesterase” (Bioorg Med Chem, 2014)
